How the values were obtained:
TYRO3 = TYRO3 (Homo sapiens, UniProt Q06418); assay: TR-FRET kinase activity assay, TYRO3; conditions: read-out: Tyro3 IC50, ATP at Km, 60 minutes, tested form: HCl
Protocol: (§1) IC50 values for compound inhibition of AXL, FLT3, MERTK and TYRO3 activity were determined using a TR-FRET activity assay. A peptide substrate with a fluorescent label is phosphorylated on a tyrosine by each enzyme, where the now phosphorylated product is bound by a Europium-labeled antibody specific to that phosphorylation site. The proximity between the antibody and the substrate gives a signal known as TR-FRET. As the enzyme is inhibited by compound, less phosphorylated peptide product is made, causing a decrease in overall signal.
(§2) Activity assays were performed in a 384-well, small volume, black microplates in an active enzyme volume of 10 uL and final developed volume of 20 uL. Final assay conditions are 50 mM HEPES pH 7.5, 10 mM MgCl2, 1 mM EGTA, 0.01% Brij 35 and 1 mM DTT, all at RT. Enzyme, substrate-labeled peptide and compound are mixed, and then the reaction is initiated with the addition of ATP at Km concentration for each enzyme. The reaction is allowed to run 60 minutes and then quenched with a 12.5 mM EDTA (ethylenediamine tetraacetic acid) solution. The plate is then developed with the addition of Europium-labeled antibody for a final volume of 20 uL and is then incubated for 30 minutes in darkness. Plates are read in a PHERASTAR® plate reader. Data are analyzed in GraphPad PRISM.

Amino acid sequences for entries named in this document (tags omitted). Residues count along the entry.
UniProt Q06418, 41-890 limits assumed: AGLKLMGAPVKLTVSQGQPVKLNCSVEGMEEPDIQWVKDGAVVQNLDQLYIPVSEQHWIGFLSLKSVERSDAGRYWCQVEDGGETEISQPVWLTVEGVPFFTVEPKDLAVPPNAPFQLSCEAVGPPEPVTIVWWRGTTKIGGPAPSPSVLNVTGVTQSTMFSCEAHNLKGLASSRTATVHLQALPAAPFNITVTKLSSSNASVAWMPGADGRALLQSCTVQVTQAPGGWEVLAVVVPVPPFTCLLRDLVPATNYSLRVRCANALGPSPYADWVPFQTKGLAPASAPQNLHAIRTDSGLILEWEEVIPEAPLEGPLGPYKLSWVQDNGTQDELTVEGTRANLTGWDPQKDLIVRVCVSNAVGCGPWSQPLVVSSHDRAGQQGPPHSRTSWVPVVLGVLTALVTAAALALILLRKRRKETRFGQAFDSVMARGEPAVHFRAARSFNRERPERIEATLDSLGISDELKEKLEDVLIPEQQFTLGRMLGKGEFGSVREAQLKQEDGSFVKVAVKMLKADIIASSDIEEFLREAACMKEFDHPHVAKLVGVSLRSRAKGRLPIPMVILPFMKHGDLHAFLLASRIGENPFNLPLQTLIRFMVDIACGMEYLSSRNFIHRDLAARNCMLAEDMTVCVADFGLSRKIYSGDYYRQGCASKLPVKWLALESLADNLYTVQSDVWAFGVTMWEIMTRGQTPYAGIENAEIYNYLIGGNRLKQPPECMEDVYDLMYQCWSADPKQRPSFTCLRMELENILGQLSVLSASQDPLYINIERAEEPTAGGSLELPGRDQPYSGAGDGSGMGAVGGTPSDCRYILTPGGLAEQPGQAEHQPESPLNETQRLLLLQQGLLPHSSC
UniProt P30530, 26-894 limits assumed: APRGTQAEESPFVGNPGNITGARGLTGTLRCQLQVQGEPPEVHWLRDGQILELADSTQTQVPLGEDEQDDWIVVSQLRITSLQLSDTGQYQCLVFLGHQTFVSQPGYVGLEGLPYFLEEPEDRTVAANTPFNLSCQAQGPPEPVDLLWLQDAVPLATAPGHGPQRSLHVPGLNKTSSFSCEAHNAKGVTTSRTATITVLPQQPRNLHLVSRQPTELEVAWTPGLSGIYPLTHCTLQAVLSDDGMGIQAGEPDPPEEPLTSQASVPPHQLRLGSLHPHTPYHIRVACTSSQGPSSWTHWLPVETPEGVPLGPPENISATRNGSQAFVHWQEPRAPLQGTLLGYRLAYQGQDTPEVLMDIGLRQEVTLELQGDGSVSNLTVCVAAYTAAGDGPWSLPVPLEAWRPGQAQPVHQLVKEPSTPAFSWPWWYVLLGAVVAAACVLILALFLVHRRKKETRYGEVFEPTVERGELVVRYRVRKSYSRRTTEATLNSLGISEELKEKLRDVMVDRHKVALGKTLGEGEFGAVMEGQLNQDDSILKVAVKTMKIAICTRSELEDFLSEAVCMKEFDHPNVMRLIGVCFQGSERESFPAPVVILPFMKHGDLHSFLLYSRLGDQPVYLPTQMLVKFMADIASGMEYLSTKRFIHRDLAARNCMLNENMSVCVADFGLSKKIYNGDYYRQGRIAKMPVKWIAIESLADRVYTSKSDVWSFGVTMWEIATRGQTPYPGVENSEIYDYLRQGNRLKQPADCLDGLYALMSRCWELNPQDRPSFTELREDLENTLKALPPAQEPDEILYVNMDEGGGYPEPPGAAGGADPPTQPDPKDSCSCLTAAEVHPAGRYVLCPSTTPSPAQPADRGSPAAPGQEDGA
UniProt P36888, 27-993 limits assumed: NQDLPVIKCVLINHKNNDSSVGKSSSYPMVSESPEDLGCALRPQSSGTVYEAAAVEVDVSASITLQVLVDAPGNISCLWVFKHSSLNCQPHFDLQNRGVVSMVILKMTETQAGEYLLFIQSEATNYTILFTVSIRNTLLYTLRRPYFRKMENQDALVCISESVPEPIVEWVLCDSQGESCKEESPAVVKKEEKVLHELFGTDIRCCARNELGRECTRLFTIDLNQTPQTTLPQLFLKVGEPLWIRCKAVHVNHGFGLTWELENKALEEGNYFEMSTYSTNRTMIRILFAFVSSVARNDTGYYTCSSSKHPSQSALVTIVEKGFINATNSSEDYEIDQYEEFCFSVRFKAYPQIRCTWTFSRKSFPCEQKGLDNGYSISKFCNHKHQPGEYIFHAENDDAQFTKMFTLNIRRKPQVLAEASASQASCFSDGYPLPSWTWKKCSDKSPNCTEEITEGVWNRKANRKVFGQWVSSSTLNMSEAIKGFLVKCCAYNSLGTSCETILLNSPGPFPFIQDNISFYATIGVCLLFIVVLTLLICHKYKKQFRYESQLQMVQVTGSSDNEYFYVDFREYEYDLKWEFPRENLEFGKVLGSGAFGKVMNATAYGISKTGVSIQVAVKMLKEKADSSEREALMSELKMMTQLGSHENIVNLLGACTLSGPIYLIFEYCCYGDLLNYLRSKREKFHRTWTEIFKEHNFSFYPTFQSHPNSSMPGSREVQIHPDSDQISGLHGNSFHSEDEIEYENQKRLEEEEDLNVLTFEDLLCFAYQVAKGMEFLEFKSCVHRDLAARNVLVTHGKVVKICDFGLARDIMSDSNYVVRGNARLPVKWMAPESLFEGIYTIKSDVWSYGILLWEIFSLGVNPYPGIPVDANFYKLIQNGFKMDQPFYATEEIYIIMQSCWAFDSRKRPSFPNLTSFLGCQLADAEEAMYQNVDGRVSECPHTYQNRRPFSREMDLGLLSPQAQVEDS
UniProt Q12866, 21-999 limits assumed: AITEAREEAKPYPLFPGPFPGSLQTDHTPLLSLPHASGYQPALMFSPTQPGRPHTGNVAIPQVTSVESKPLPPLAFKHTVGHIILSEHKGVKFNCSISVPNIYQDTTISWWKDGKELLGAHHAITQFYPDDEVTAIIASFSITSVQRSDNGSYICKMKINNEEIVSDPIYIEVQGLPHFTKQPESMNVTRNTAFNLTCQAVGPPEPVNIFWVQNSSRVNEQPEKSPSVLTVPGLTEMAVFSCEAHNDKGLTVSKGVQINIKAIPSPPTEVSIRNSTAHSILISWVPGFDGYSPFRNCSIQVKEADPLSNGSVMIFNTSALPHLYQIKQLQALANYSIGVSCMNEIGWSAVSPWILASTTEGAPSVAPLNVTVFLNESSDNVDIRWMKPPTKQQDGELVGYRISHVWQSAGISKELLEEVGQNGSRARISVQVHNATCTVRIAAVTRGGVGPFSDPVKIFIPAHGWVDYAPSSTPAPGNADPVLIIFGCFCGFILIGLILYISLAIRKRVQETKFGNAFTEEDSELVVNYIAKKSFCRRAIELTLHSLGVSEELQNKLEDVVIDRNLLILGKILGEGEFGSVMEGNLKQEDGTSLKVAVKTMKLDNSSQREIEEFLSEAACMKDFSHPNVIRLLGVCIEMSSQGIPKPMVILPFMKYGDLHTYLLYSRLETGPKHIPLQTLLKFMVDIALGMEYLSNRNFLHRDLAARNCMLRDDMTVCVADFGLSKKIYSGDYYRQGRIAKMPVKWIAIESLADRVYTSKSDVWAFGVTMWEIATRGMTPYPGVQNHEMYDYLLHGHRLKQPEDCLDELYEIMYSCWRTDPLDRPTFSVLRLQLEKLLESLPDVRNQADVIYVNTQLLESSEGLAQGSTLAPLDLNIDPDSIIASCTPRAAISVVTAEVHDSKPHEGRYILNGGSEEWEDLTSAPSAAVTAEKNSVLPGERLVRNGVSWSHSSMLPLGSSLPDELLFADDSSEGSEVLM

AXL = AXL (Homo sapiens, UniProt P30530); assay: TR-FRET kinase activity assay, AXL; conditions: read-out: Axl IC50, ATP at Km, 60 minutes, tested form: HCl
Protocol: as §1, §2

FLT3 = FLT3 (Homo sapiens, UniProt P36888); assay: TR-FRET kinase activity assay, FLT3; conditions: read-out: Flt3 IC50, ATP at Km, 60 minutes, tested form: HCl
Protocol: as §1, §2

MERTK = MERTK (Homo sapiens, UniProt Q12866); assay: TR-FRET kinase activity assay, MERTK; conditions: tested form: HCl
Protocol: as §1, §2

IC50 (TYRO3): < 100 nM
IC50 (AXL): 100 to 1000 nM
IC50 (FLT3): < 100 nM
Mer/Flt3 ratio (FLT3 IC50/Mer IC50) (MERTK; ratio calculated as FLT3 IC50/Mer IC50): + (a ratio of >2.0 and <10)
IC50 (MERTK; read-out: Mer IC50, TR-FRET activity assay, ATP at Km, 60 minutes): < 100 nM
Compound: CCCCNc1ncc2c(=O)n(C3CCN(C)CC3)cc([C@H]3CC[C@H](O)CC3)c2n1

— patent US20200291018A1, “TAM KINASE INHIBITORS” (SYROS PHARMACEUTICALS, INC., priority 2017, published 2020)
